Literature values in patent US5795865A, “Kallikrein-inhibiting "kunitz domain" proteins and analogues thereof” (Dyax Corp., priority 1996, dated 1998).

Conditions: about 840 mg, 80 open-heart surgery patients, FRAE89; cited from earlier work

bovine pancreatic trypsin inhibitor [BPTI]
reduction of blood loss: almost half
